The results in this text go back to patent US8993566B2, “Quinoline compound composing 1,2,4-triazine-dione and use thereof” (Wuhan Shengyun Biopharma Co., Ltd., priority 2012, dated 2015).

Sequences of proteins named here, by UniProt entry; tags and fusion partners are left off. Residues count along the entry.
UniProt P08581, 956-1390: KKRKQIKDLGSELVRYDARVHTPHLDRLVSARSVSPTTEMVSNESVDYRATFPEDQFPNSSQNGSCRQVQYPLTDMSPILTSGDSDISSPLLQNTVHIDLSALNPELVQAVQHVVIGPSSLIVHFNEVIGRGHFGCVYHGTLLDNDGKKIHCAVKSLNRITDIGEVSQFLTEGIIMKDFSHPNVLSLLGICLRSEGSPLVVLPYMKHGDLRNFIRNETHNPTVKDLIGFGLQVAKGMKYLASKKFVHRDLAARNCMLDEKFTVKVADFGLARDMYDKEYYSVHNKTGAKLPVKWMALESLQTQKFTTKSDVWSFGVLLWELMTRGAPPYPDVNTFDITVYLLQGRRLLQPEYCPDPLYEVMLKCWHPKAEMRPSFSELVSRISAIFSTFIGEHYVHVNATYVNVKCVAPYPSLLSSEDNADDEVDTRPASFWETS

This test addresses T1, c-Met kinase (His-tagged recombinant human Met (amino acids 974-end)) (Homo sapiens, UniProt P08581).
T1 construct: His-tagged recombinant human Met (amino acids 974-end); His
Kind of test: c-Met Enzyme Activity Inhibition Assay (ELISA). The following applies: 50 pM c-Met, 5 μM ATP, room temperature 20 min. The class given is biochemical. The method, then: c-Met Enzyme Activity Inhibition Assay
The assay for the determination of c-Met kinase activity is based on an enzyme linked immunosorbant assay (ELISA). A compound of Formula I, 50 pM c-Met (His-tagged recombinant human Met (amino acids 974-end), expressed by baculovirus), and 5 μM ATP in an assay buffer (25 mM MOPS, pH 7.4, 5 mM MgCl2, […], 100 μM sodium orthovanadate, 0.01% Triton X-100, 1 mM DTT, final DMSO concentration 1% (v/v)) were incubated on a plate coated with 0.25 mg/mL POT at room temperature for 20 min. The reaction mixture was removed by washing and the phosphorylated polymer substrate was detected with 0.2 μg/mL phosphotyrosine specific monoclonal antibody (PY20) conjugated to horseradish peroxidase (HRP). After the addition of 1M phosphoric acid to stop the development, the chromogenic substrate (TMB) color was quantitated by spectrophotometry at 450 nm.

For “N-[3-fluoro-4-[6-methoxy-7-[3-(4-morpholinyl)propyloxy]quinolin]-4-oxy]phenyl]-2-(2,4-dichlorophenyl)-4-benzyl-3,5-dicarbonyl-2,3,4,5-tetrahydro-1,2,4-triazine-6-carboxamide [Example 43]”, the “IC50 for inhibiting c-Met kinase” value came out at 3.8 µg/mL.

In the case of “N-[3-fluoro-4-[6-methoxy-7-[3-(1-piperidinyl)propyloxy]quinolin]-4-oxy]phenyl]-2-phenyl-4-benzyl-3,5-dicarbonyl-2,3,4,5-tetrahydro-1,2,4-triazine-6-carboxamide [Example 46]”, the “IC50 for inhibiting c-Met kinase” value stood at 8.2 µg/mL.
